Literature values as cited in PMC4596243 (Cancer chemotherapy and pharmacology, 2013).

Tested on: intracerebral glioma
Conditions: mouse, in vivo; cited from earlier work

CCN(CC)CCNC(=O)c1c(C)[nH]c(/C=C2\C(=O)Nc3ccc(F)cc32)c1C [sunitinib]
effect when combined with TMZ: synergistic effect
